# Reference: PMC4256349, “A Conformational Sampling Model for Radical Catalysis in Pyridoxal Phosphate- and Cobalamin-dependent Enzymes” (The Journal of Biological Chemistry, 2014)
# Test system: NCCC[C@@H](N)C(=O)O
# Assay: purified protein
# Settings: anaerobic, 100 mM NH4-EPPS pH 8.5, 25 °C, PLP and AdoCbl holoenzyme, unit row missing in table text, units follow from printed kcat/Km
Substance,Km [µM],kcat [s⁻¹],kcat/Km [M⁻¹ s⁻¹]
"ornithine 4,5-aminomutase (OAM) (Acetoanaerobium sticklandii DSM 519; D624A)",193 ± 14,2.89 ± 0.01,15000
"ornithine 4,5-aminomutase (OAM) (Acetoanaerobium sticklandii DSM 519; E335A)",176 ± 8,0.24 ± 0.03,1340
"ornithine 4,5-aminomutase (OAM) (Acetoanaerobium sticklandii DSM 519; G336W)",190 ± 6,0.20 ± 0.05,1050
"ornithine 4,5-aminomutase (OAM) (Acetoanaerobium sticklandii DSM 519; I421E)",185 ± 5,0.76 ± 0.04,4120
"ornithine 4,5-aminomutase (OAM) (Acetoanaerobium sticklandii DSM 519; P340W)",193 ± 5,0.14 ± 0.02,730

# Same assay, conditions: anaerobic, 100 mM NH4-EPPS pH 8.5, 25 °C, PLP and AdoCbl holoenzyme, unit row missing in table text, units follow from printed kcat/Km, not spin-labelled
Substance,Km [µM],kcat [s⁻¹],kcat/Km [M⁻¹ s⁻¹]
"ornithine 4,5-aminomutase (OAM) (Acetoanaerobium sticklandii DSM 519; C697S)",186 ± 11,2.88 ± 0.03,15500
